ChEMBL document CHEMBL6078669, “Stereoisomers of cannabidiols and their pharmacological activities - A potentially novel direction for cannabinoids” (Bioorg Med Chem, 2025)

Chains of the proteins cited; added tags and fusions are not shown.
UniProt P34972, whole entry: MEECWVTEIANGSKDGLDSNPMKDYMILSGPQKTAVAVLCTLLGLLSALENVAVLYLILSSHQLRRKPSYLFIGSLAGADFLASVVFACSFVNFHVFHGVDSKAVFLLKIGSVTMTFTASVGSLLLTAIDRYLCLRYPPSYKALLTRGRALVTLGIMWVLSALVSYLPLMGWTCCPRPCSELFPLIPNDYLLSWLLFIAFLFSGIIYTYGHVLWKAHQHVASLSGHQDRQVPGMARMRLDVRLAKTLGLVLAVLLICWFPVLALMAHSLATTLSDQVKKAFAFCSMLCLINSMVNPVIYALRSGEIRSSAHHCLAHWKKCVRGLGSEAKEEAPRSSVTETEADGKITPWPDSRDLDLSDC
UniProt P20272, whole entry: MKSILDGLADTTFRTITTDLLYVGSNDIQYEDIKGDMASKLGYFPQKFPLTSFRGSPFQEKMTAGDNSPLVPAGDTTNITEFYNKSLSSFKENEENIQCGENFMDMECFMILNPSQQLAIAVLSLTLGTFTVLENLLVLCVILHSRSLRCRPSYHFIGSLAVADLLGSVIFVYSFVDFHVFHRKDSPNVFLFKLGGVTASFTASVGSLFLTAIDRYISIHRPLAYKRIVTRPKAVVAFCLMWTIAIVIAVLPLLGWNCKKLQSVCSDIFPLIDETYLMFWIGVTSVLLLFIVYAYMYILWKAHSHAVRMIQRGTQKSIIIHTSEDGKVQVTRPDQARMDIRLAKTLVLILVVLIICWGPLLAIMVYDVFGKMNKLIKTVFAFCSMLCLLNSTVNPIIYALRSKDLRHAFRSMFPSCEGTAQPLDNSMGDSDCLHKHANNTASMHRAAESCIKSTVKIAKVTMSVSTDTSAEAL

Columns and labels:
Cannabinoid receptor 2 = Cannabinoid receptor 2 (Homo sapiens, UniProt P34972); assay: Displacement of [3H]HU-243 from CB2 receptor (unknown origin) extracted from green monkey COS-7 cell membrane assessed as inhibition constant incubated for 90 mins; type: cell membranes
Cannabinoid receptor 1 = Cannabinoid receptor 1 (Rattus norvegicus, UniProt P20272); assay: Displacement of [3H]HU-243 from Sabra rat brain synaptosome CB1 receptor assessed as inhibition constant incubated for 90 mins; type: subcellular

C=C(C)[C@@H]1CCC(C)=C[C@H]1c1c(O)cc(CCCCC)cc1O [CANNABIDIOL]
Ki (Cannabinoid receptor 2): > 1000 nM
Ki (Cannabinoid receptor 1): > 1000 nM
